Ratio Ki data for 1 compound are collected here from ChEMBL document CHEMBL5131434, “Design and synthesis of novel orexin 2 receptor agonists based on naphthalene skeleton” (Bioorg Med Chem Lett, 2022).

For the experiment, the species on record is Homo sapiens. The experiment is described as follows: Selectivity ratio of Ki for antagonist activity at human OX1R expressed in CHO-K1 cells to Ki for antagonist activity at human OX2R expressed in CHO-K1 cells. Type of experiment: cell-based.

Turning to `COc1ccc(C(=O)Nc2cccc([C@]3(C)O[C@@H]4CO[C@H]5N4[C@@H]3O[C@@]5(C)c3cccc(NC(=O)c4ccc(OC)cc4)c3)c2)cc1`, the Ratio Ki worked out at 6.6.
